From patent US11083717B2, “Compositions and methods for drug sensitization of parasites” (The Texas A&M University System, priority 2015, dated 2021)

What was measured:
[1] = tested on: Cryptosporidium parvum (CP); experiment: Cell culture model of Cryptosporidium parvum infection in HCT-8 cells, real-time qRT-PCR; type: cell-based
Experimental: Fresh oocysts of CP (Iowa strain) were purchased from Bunch Grass Farm (Deary, Id.). Oocysts were further purified by a Percoll-based gradient centrifugation method and surface sterilized with 10% bleach for 7 min on ice, followed by washes with phosphate-buffered saline (PBS). An ileocecal colorectal adenocarcinoma cell line (HCT-8, ATCC #CCL-244) was used to host the growth of CP in vitro. One day before the inoculation, HCT-8 cells were seeded in 96-well plates (2.5×10^4/well) containing RPMI 1640 medium supplied with 10% fetal bovine serum (200 μL medium/well in all experiments) and allowed to grow overnight at 37° C. under 5% CO2 atmosphere until they reached ˜90% confluence. For drug testing, host cells were infected with 1.5×10^4 oocysts per well (ratio ˜1:3). After inoculation, parasite oocysts were allowed to undergo excystation and invasion into host cells for 3 h at 37° C. Free parasites and oocyst walls in the medium were removed from the plates by an exchange of the culture medium. […]
The levels of 18S rRNA transcripts from CP and host cells (referred to as Cp18S and Hs18S) were detected by real-time qRT-PCR method using qScrip™ one-step SYBR green qRT-PCR kit (Quanta Biosciences, Gaithersburg, Md.). […]
The % inhibition (% inh @ (μM)) was calculated using a standard curve. […]

S. cerevisiae = conditions: Saccharomyces cerevisiae
From the text: (§1) These tests included an IL-12 mouse model test to determine compound efficacy, verification of MIC50 for CP, cytotoxicity test for fibroblasts and yeast to determine potential toxic effects, a Human ether-a-go-go-related gene (hERG) test to determine potential cardiotoxicity, an AMES test tp determine mutagenic potential, a Safety Screen 44 test to determine common negative off-target drug interastion (Eurofins Cerep, SA, France), a cytochrome P450 (CYP) test to determine potential liver toxicity, a maximum tolerated dose, test, a Pharmacokinetics (PK) test to determine fate of the substance administered to a living organism tests for plasma stability in human and mouse, to measure the degradation of compound in plasma MClint and HClint test to determine in vitro intrinsic clearance for Mouse and Human, and kinetic solubility and plasma protein binding tests in mouse and human.

human fibroblast = tested on: human fibroblast
From the text: as §1

SMILES | inhibition at 10 µM ([1]; HCT-8, read-out: % inh @ (μM)) [%] | concentrations at which not toxic, S. cerevisiae cytotoxicity testing (S. cerevisiae) [µM] | concentrations at which not toxic, human fibroblast cytotoxicity testing (human fibroblast) [µM] | concentrations at which not toxic, human fibroblast cytotoxicity testing (human fibroblast; human) [µM] | inhibition at 0.9 µM ([1]; HCT-8, @0.9 uM) [%]
CONC(=O)[C@@H](C)Oc1ccc(Oc2nc3ccc(F)cc3s2)cc1 [NZ-289, (2R)-2-{4-[(6-fluoro-1,3-benzothiazol-2-yl)oxy]phenoxy}-N-methoxypropanamide] | 88 | ≥ 100 | ≥ 100 | – | –
CONC(=O)[C@@H](C)Oc1ccc(Oc2nc3ccc(Cl)cc3o2)cc1 [NZ-296, (2R)-2-{4-[(6-chloro-1,3-benzoxazol-2-yl)oxy]phenoxy}-N-methoxypropanamide] | – | ≥ 100 | – | ≥ 100 | –
COC(=O)C(C)c1ccc(Oc2nc3ccc(Cl)cc3s2)cc1 (centres unmarked) [NZ-311, methyl 2-{4-[(6-chloro-1,3-benzothiazol-2-yl)oxy]phenyl}propanoate] | – | ≥ 100 | – | ≥ 100 | –
CC(C)NC(=O)Nc1ccc(Oc2cnc3cc(Cl)ccc3n2)cc1 [NZ-322, 1-{4-[(6-chloroquinoxalin-2-yl)oxy]phenyl}-3-(propan-2-yl)urea] | – | ≥ 100 | – | ≥ 100 | 44
O=C1NCCN1c1ccc(Oc2nc3ccc(Cl)cc3s2)cc1 [NZ-341, 1-{4-[(6-chloro-1,3-benzothiazol-2-yl)oxy]phenyl}imidazolidin-2-one] | – | – | ≥ 100 | – | –
CNC(=O)Nc1ccc(Oc2cnc3cc(Cl)ccc3n2)cc1 [NZ-342, 1-{4-[(6-chloroquinoxalin-2-yl)oxy]phenyl}-3-methylurea] | – | – | – | ≥ 100 | –
CC(C)NC(=O)Nc1ccc(Oc2nc3ccc([N+](=O)[O-])cc3s2)cc1 [NZ-363, 1-{4-[(6-nitro-1,3-benzothiazol-2-yl)oxy]phenyl}-3-(propan-2-yl)urea] | – | ≥ 100 | ≥ 100 | – | –

Like-named read-outs stand apart in the source and are kept apart here.
